For this assay the following is noted: in comparison to a 15 mg dose of hydrocodone.

In the case of `CN1CC[C@]23c4c5ccc(O)c4O[C@H]2C(=O)CC[C@H]3[C@H]1C5` [Hydromorphone], the “Equianalgesic Doses of Opioids, Calculated Dose” value was 3.375 mg.

The values above are taken from US20130337020A1, “Pharmaceutical Compositions” (Alpharma Pharmaceuticals LLC, priority 2006, published 2013).
